Measurements reported in paper PMC12836348, “Alanine Mutagenesis Identifies Specific Amino Acids of Nemertide Alpha‑1 Activity and Its Binding to Target Receptors” (Journal of Natural Products, 2025).

Sequences of proteins named here, by UniProt entry; tags and fusion partners are left off.
UniProt P63142, whole entry: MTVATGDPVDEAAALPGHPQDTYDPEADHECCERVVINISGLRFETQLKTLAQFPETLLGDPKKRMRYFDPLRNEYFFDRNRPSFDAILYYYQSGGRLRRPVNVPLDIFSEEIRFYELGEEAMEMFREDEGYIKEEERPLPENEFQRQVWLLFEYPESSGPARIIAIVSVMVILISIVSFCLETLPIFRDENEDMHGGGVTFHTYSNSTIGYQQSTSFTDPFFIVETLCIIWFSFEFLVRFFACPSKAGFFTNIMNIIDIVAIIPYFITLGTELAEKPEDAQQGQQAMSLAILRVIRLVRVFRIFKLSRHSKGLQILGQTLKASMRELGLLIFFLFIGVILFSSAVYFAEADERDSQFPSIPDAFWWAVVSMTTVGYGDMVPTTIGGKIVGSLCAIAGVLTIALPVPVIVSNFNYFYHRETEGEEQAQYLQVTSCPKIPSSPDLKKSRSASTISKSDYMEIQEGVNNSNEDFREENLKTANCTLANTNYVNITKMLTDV

Legend:
Format in all cases: cell-based
Set-up in all cases: key: “+” means tested and produced effect; “–“ means tested but no effect
α4β2 = assay: Ion channel panel, nAChR α4β2; conditions: S12A at 5 μM, oocytes at −70 mV, 5 min incubation, n ≥ 3
Text: (§1) To assess the concentration–response relationships, data were fitted with the Hill equation: y = 100/[1 + (EC50/[toxin])^ h ], where y is the amplitude of the toxin-induced effect (y = I 30 ms/I peak where I 30 ms is the current value at 30 ms in the presence of toxin and I peak is the peak current amplitude in control conditions), EC50 is the toxin concentration at half-maximal efficacy, [toxin] is the toxin concentration, and h is the Hill coefficient. Potassium and calcium currents were evoked by a 500 ms depolarization to the voltage corresponding to the maximal activation of the channels in control conditions from a holding potential of −90 mV. Elicited currents were sampled at 1 kHz and filtered at 0.5 kHz. […] ASIC1a currents were measured in ND96 solutions at a pH of 7.4 and 4.5, at a holding potential of −70 mV during 400 s, and the data were filtered at 20 Hz. EnaC currents were measured by clamping oocytes at a holding potential of −60 mV and perfusing with low- (1 mM) and high- (96 mM) sodium ND96. Opioid currents were measured by clamping the potential to −70 mV and changing the perfusion solution from ND96 to high-potassium (HK) solution composed of 96 mM KCl, 2 mM NaCl, 1 mM MgCl2, 1.8 mM CaCl2, and 5 mM HEPES, with a final pH of 7.5. […] TRPV1 and TRPA1 currents were continuously monitored in a perfusing ND96 solution, following a protocol at −90 mV for 400 s. […]

Kv1.3 = assay: Ion channel panel, Kv1.3; conditions: S12A at 5 μM; Xenopus oocytes, n ≥ 3
Text: as §1

KQT-1 = assay: Ion channel panel, KQT-1; conditions: S12A at 5 μM; Xenopus oocytes, n ≥ 3
Text: as §1

Kv7.1 = assay: Ion channel panel, Kv7.1; conditions: S12A at 5 μM; Xenopus oocytes, n ≥ 3
Text: as §1

Kv7.2/Kv7.3 = assay: Ion channel panel, Kv7.2/Kv7.3; conditions: S12A at 5 μM; Xenopus oocytes, n ≥ 3
Text: as §1

Kv1.2 = Kv1.2 (Rattus norvegicus, UniProt P63142); assay: Ion channel panel, Kv1.2; conditions: S12A at 5 μM; Xenopus oocytes, n ≥ 3
Text: as §1

Cav3.2 = assay: Ion channel panel, Cav3.2; conditions: S12A at 5 μM; Xenopus oocytes, n ≥ 3
Text: as §1

CC[C@H](C)[C@@H]1NC(=O)[C@@H](NC(=O)CN)CSSC[C@@H]2NC(=O)[C@@H]3CSSC[C@@H](C(=O)N[C@@H](CC(N)=O)C(=O)N4C[C@H](O)C[C@H]4C(=O)N4C[C@H](O)C[C@H]4C(=O)N[C@@H](CC(N)=O)C(=O)N[C@@H](CCC(N)=O)C(=O)O)NC(=O)[C@H](CCCCN)NC(=O)[C@H](Cc4ccccc4)NC(=O)[C@H](CC(N)=O)NC(=O)[C@H](Cc4c[nH]c5ccccc45)NC(=O)CNC(=O)[C@H](CSSC[C@H](NC(=O)[C@H](Cc4ccccc4)NC(=O)[C@H](CO)NC(=O)CNC(=O)[C@H]([C@@H](C)O)NC(=O)[C@H](C)NC1=O)C(=O)N[C@@H]([C@@H](C)O)C(=O)N[C@@H](CC(C)C)C(=O)N[C@@H](C)C(=O)N[C@@H](CCCCN)C(=O)NCC(=O)N3)NC(=O)[C@H](CC(N)=O)NC(=O)[C@H](CCCCN)NC(=O)[C@H]([C@@H](C)O)NC2=O [Peptide S12A]
–: effect on α4β2 (α4β2) | effect on Kv1.3 (Kv1.3) | effect on KQT-1 (KQT-1) | effect on Kv7.1 (Kv7.1) | effect on Kv7.2/Kv7.3 (Kv7.2/Kv7.3) | effect on Kv1.2 (Kv1.2) | effect on Cav3.2 (Cav3.2)
